Nrf2 block: Nrf2 pathway inhibition. A549 ARE-Fluc reporter, luciferase luminescence, 18-24 h. Potency, µM (doses to about 46 µM), hits mostly inhibitors. hit rate 2.1% among 360,000. AID 504444; further: nearly all actives have a fitted effect of over 60% in size
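A549 ARE_Fluc cells (5000/well, 5% FBS OPTI-MEM) pre-incubated 2 h, then treated with compounds 18-24 h at 37C/5% CO2 in concentration-response. CellTiter-Fluor viability read first; BugLite luciferase luminescence after 15 min at room temperature gives Nrf2 activity.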
ClpP mod: qHTS Assay for Activators of ClpP | AID 651965, 2013 | purified B. subtilis ClpP, FRET peptide cleavage, 20 min | hit rate 1.9% among 340,000 | Potency, µM (top dose mostly 57.5 µM) | ATP-dependent Clp protease proteolytic subunit (Bacillus subtilis (strain 168)), P80244; active means well fitted falling curve with a large enough effect; inconclusive means small, poorly fitted or top-dose-only effect; inactive means no such curve, though single readings can be large or run the other way; further: the source files actives as falling curves though it sought activators and does not explain the sign; nearly all actives have a fitted effect of over 65% in size
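FRET quenching reversal measured ClpP activation: 10 microg/mL B. subtilis ClpP at pH 8 with the FRET-FV decapeptide, read at 430 nm after 320 nm excitation. The 20-min minus 0-min signal was scaled between DMSO/no-enzyme wells and ADEP (5.8 microM final).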
A549 viability: A549 cytotoxicity, counter-screen for Nrf2 inhibitors; Potency, µM (highest dose often 46 µM), hits mostly inhibitors; hit rate 0.16% among 390,000; A549 ARE-Fluc cells, CellTiter-Fluor viability, 18-24 h
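Cytotoxicity counterscreen: CellTiter-Fluor fluorescence was measured in A549 ARE_Fluc cells after 18-24 h of compound exposure in a concentration series. The subsequent BugLite luminescent read reports ARE-luciferase activity.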
Nrf2 ARE act: activates Nrf2 signaling; AREc32 ARE-luciferase reporter (MCF7-derived line), luminescence, 24 h; Potency, µM (top dose mostly 46.1 µM), usual class: activators; hit rate 0.31% among 410,000; AID 624171; further: nearly all actives have a fitted effect of over 65% in size
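AREc32_Fluc, 1000 cells/well, OPTI-MEM + 5% FBS, o/n 37 deg C 5% CO2; 23 nL cpd by pin tool, 24 hr; Steady-Glo 30 min RT, luminescence.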
TCR act: T cell receptor activation; primary human leukocytes, anti-CD3, IL-2 HTRF, 48 h; Potency, µM (titrated, usually from 9.22 µM), most hits filed as activators; 330,000 tested, under 10 active; AID 504894
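48 hr co-incubation of compounds, a-CD3 beads and primary human leukocytes; IL-2 quantified homogeneously by HTRF with anti-IL-2 K and d2 conjugates.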
miR-21 FLuc: miR-21 reporter, rising signal | HeLa miR-21 FLuc reporter, luciferase, 48 h | Potency, µM (top dose mostly 38.3 µM) | 340,000 tested, under 10 active | AID 2288; active = well fitted rising curve with a large enough effect; inconclusive = small, poorly fitted or top-dose-only effect; inactive = no such curve, though single readings can be large or run the other way;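 note: miR-21 action dims this reporter so a rising signal means less miR-21 action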
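Compounds were titrated across several concentrations (up to approximately 40 uM) and incubated 48 hours with HeLa miR-21-FLuc reporter cells (miR-21 target sequence downstream of FLuc, endogenous miR-21). Readout was firefly luciferase luminescence after lytic detection reagent.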
Large screens that a line does not name were inactive. Sampled rows, rich in hits. Any-hit rate of the full collection: about 3.7%. Unless noted, the call rests on the fitted dose curve; in most records, active means well fitted curve in the direction sought with a large enough effect; inconclusive means small, poorly fitted or top-dose-only effect, or another doubt; inactive means no such curve, though single readings can be large; an effect the other way counts as inactive or inconclusive.

Cc1ccc(-c2nc(=Nc3c(C)cc(C)cc3C)sn2-c2ccccc2)cc1	Nrf2 block 23µM (no result: Nrf2 ARE act, TCR act, miR-21 FLuc)
CC1CC(C)CN(S(=O)(=O)c2ccc(C(=O)Nc3nnc(-c4cccs4)o3)cc2)C1 (centres undefined)	Nrf2 block 5µM, A549 viability inconclusive
CCC1CCCCN1S(=O)(=O)c1ccc(C(=O)Nc2nnc(-c3cccs3)o2)cc1 (centres undefined)	Nrf2 block 5µM, A549 viability inconclusive
CN(C)S(=O)(=O)c1ccc(C(=O)Nc2nnc(-c3cccs3)o2)cc1	Nrf2 block inconclusive
Nc1nc2ncn(COCCO)c2c(=O)[nH]1	none (no result: Nrf2 block, A549 viability, Nrf2 ARE act, TCR act, miR-21 FLuc)
c1ccc(N2N=C(c3cccs3)CC2c2ccco2)cc1 (centres undefined)	Nrf2 block inconclusive, ClpP mod 16µM, A549 viability inconclusive
c1ccc(C2=NN(c3ccccc3)C(c3ccco3)C2)cc1 (centres undefined)	Nrf2 block inconclusive (no result: ClpP mod)
O=C(N=Nc1c(O)[nH]c2ccc(Br)cc12)c1ccco1	Nrf2 ARE act 5µM (no result: Nrf2 block, A549 viability, TCR act, miR-21 FLuc)
CN(C)c1ccc(/C=C2\NC(=O)NC2=O)cc1	none (no result: Nrf2 block, A549 viability, Nrf2 ARE act, TCR act, miR-21 FLuc)
NC(=O)CC(NC(=O)c1ccccc1)c1ccc(N2CCC(Cc3ccccc3)CC2)c([N+](=O)[O-])c1 (centres undefined)	Nrf2 block 10µM, A549 viability inconclusive
Cn1nnnc1SCCCNCc1ccccc1OCc1ccc(Cl)cc1	none (no result: TCR act)
CCOc1nc(NC(=O)NS(=O)(=O)c2cccc(Cl)c2)nc(-c2ccccc2)n1	ClpP mod 28µM
CC(=O)Nc1cccc(NC(=O)COc2ccc3c(c2)OCO3)c1	Nrf2 block inconclusive (no result: ClpP mod)
Cc1c(C(=O)NCc2ccccc2Cl)sc2nc[nH]c(=O)c12	ClpP mod 40µM (no result: Nrf2 block, TCR act)
Cc1c(C(=O)NCc2cccc(Cl)c2)sc2nc[nH]c(=O)c12	ClpP mod 22µM (no result: Nrf2 block, TCR act)
CCCn1c(=O)c2sccc2n2c(CCCC(=O)N3CCN(c4ccc(OC)cc4)CC3)nnc12	Nrf2 block inconclusive (no result: TCR act)
CN(Cc1ccccc1)C(=O)[C@@H]1CCCN1C(=O)[C@@H]1CCCN1C(=O)c1ccc(Cl)cc1	none (no result: Nrf2 block, A549 viability, TCR act, miR-21 FLuc)
Cc1nc2cc(-c3cccc(Cl)c3)nn2c(N2CCN(C(=O)c3ccco3)CC2)c1C	none (no result: Nrf2 block, ClpP mod, A549 viability, Nrf2 ARE act, TCR act)
Cc1cc(N2CCN(C(=O)c3ccco3)CC2)n2nc(-c3cccc(Cl)c3)cc2n1	ClpP mod 35µM, A549 viability inconclusive (no result: Nrf2 block)
O=C(c1cc2nc(-c3ccccc3)cc(-c3ccccc3)n2n1)N1CCN(C(=O)c2ccco2)CC1	Nrf2 block 23µM
COc1ccc(CCN(CC(=O)NC(C)(C)C)C(=O)Cn2nnc(-c3ccc(C)o3)n2)cc1OC	none (no result: ClpP mod)
CC(C)NCC(O)Cn1c2c(c3ccccc31)CCc1c-2cnn1-c1ccccc1 (centres undefined)	ClpP mod 8.9µM, miR-21 FLuc inconclusive (no result: Nrf2 block)
O=c1[nH]c(O)c(/C=C2\C=Nc3ccc(Br)cc32)[nH]1	Nrf2 ARE act 10µM
O=C(NCC1CCCO1)c1cccc(S(=O)(=O)Nc2ccccc2Cl)c1 (centres undefined)	none (no result: Nrf2 block, A549 viability, TCR act, miR-21 FLuc)
CN1CCN(c2ccc(CNC(=O)c3cccc4c(-c5ccc(F)c(F)c5)coc34)cc2)CC1	none (no result: Nrf2 block, A549 viability, TCR act, miR-21 FLuc)
O=C(CSc1ccc(-c2ccc(-n3cccn3)cc2)nn1)Nc1ccccc1F	ClpP mod 16µM (no result: miR-21 FLuc)
O=C(CSc1ccc(-c2cccnc2)nn1)Nc1ccccc1F	none
CCCC(C)C(=O)Nc1nc(C)c(-c2csc(Nc3cc(Cl)ccc3C)n2)s1 (centres undefined)	Nrf2 block 23µM
CCCCCC(=O)Nc1nc(C)c(-c2csc(Nc3cc(Cl)ccc3C)n2)s1	none
COc1cc(C(=O)N(Cc2ccccc2)c2cccc(C)c2)ccc1OC(F)F	ClpP mod inconclusive
Cc1ccc(-c2nc(CN(C)Cc3cccc4cnccc34)c(C)o2)s1	Nrf2 block 23µM
CC(=NNC(=S)N1CCCC1)c1ccccn1	Nrf2 ARE act inconclusive (no result: Nrf2 block, A549 viability, TCR act, miR-21 FLuc)

Source: PubChem
